# scFv variants of Ab-14 (light chain) against a SARS-CoV-2 spike peptide

Values reported by Li et al. 2023, doi:10.1038/s41467-023-39022-2 (FLAb copy).

Antigen: PDVDLGDISGINAS, a 14-residue peptide of the SARS-CoV-2 spike HR2 region.

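The parent was found by panning a naive human phage display library on the peptide. The variants were designed computationally from a first round of random CDR variants and then made and measured. Their group label is 14L_GP_Gibbs (GP: Gaussian process model; Gibbs: Gibbs sampling; a sequence that several methods proposed may carry one label only). Affinity was read by AlphaSeq, a pooled yeast mating assay with surface-displayed partners. After mating in shaken culture at 30 °C for 16 h, diploids were selected and their barcode pairs sequenced. The ratio of observed to expected reads was calibrated, replicate by replicate, on BCL2-family standards whose Kd was known from biolayer interferometry. Each pool was mated in six replicate cultures.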

Ab-14 is the parent antibody, in scFv form: VH, then three GGGGS repeats, then VL. The heavy chain is unchanged in all variants.
VH: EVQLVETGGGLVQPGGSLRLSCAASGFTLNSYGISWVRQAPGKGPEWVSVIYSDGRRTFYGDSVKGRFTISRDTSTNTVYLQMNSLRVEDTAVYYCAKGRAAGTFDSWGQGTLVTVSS
VL: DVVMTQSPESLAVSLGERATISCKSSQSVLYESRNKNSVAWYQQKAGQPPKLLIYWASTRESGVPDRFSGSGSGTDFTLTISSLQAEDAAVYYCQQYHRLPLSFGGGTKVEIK

Substitutions are numbered in sequence along the VL above, starting at 1 (not Kabat). Scale: log10 of Kd in nM, estimated from mating counts; low values are strong binders. Replicates are averaged; those with no signal do not enter the mean. Where no diploid with the target was found in that replicate, the entry reads "nd": below detection, most likely a poor binder, though not proof of it. A sequence measured in both rounds can read differently, since the two assays cover different ranges. Empty control strains, which show no peptide, gave a signal in 4% of pairings with all light chain designs; the median was 2.64 and 95% of these signals were weaker than 1.59. No background was subtracted. Also given: how often the same scFv was detected with the empty control strains, with their mean in brackets. In the paper, a design with two or fewer of six values counts as a poor binder. Of ten entries with the parent sequence, four were seen in most replicates (averages 0.34 to 2.37), three in one and three in none, so single entries are noisy.

| changes | replicates, log10 nM | log10 Kd (nM), mean | control signals |
|---|---|---|---|
| S25L+S28Q+V29A+W56Q+S62V | -0.39 / -0.43 / 0.03 / -0.66 / -0.25 / -0.30 | -0.33 | 0 of 18 |
| S25L+L30G+E32Q+W56N+S62D | -0.02 / -0.01 / -0.13 / -0.26 / -0.32 / 0.07 | -0.11 | 3 of 18 (1.97) |
| S25M+S26Q+V29E+Y31M+K36M+W56H+T59K+Q96D | 0.82 / 0.70 / 0.19 / 0.38 / 0.58 / 0.84 | 0.59 | 2 of 18 (3.10) |
| S25V+V29K+N35Q+K36F+W56H+T59Q+S62L | 0.79 / 0.54 / 0.52 / 0.49 / 0.58 / 0.65 | 0.60 | 1 of 18 (4.41) |
| S25L+S26Q+V29C+N35M+K36P+W56N+E61Y | 0.31 / -0.01 / -0.05 / 0.38 / -0.11 / 0.02 | 0.09 | 2 of 18 (2.31) |
| K24H+S25Q+L30P+Y31M+E32G+S33E+W56M+T59Y | 1.61 / 1.22 / 1.63 / 1.08 / 1.18 / 0.96 | 1.28 | 1 of 18 (2.40) |
| S25L+S26Y+V29G+W56S+T59M+H98F | -0.41 / -0.83 / -0.62 / -0.35 / -0.80 / -0.48 | -0.58 | 0 of 18 |
| S25L+S26Q+Q27L+V29M+L30P+N35M+W56H+T59V | 0.33 / 0.23 / 0.08 / 0.02 / 0.27 / 0.06 | 0.17 | 2 of 18 (1.80) |
| S25L+S26M+S28E+V29Q+L30E+E32Q+N35M+W56H+T59E | 0.11 / 0.33 / 0.59 / 0.59 / 0.83 / 0.65 | 0.52 | 0 of 18 |
| S25L+V29H+S33E+K36D+W56S+T59Q | 0.24 / 0.21 / 0.06 / 0.20 / 0.04 / 0.26 | 0.17 | 3 of 18 (2.82) |
| S25I+S33Q+N35A+K36Q+W56E+E61C+S62D | 0.26 / -0.02 / -0.09 / -0.14 / 0.05 / 0.04 | 0.02 | 1 of 18 (3.85) |
| S25L+S26D+Q27I+V29E+Y31G+K36W+W56N+T59Q+S62E | 0.38 / 0.05 / 0.13 / 0.12 / 0.29 / 0.68 | 0.28 | 0 of 18 |
| S25L+Q27G+L30M+Y31M+E32L+S33Q+K36D+W56D+S58N | 0.21 / 0.08 / -0.21 / -0.20 / -0.08 / 0.18 | 0.00 | 0 of 18 |
| S25Y+S26Q+Q27G+S28Q+V29E+Y31T+W56N+R99Q | 0.08 / 0.16 / -0.06 / 0.16 / 0.10 / 0.10 | 0.09 | 0 of 18 |
| S25Q+S26Q+Q27F+Y31Q+N35Q+K36C+W56E+S62E | nd / nd / nd / nd / nd / 1.23 | 1.23 | 0 of 18 |
| S25L+V29D+L30G+E32Q+S33A+K36S+W56H+S62D | -0.01 / -0.11 / -0.15 / -0.34 / -0.10 / -0.05 | -0.13 | 0 of 18 |
| S25L+Q27S+V29H+E32G+S33Q+N35M+W56Q+T59Q+S62M | 1.59 / 1.39 / 1.63 / 0.89 / 1.78 / 1.61 | 1.48 | 0 of 18 |
| S25L+S26D+V29H+W56N+S58N+S62E | 0.06 / -0.11 / -0.30 / -0.18 / -0.32 / -0.14 | -0.16 | 2 of 18 (3.97) |
| S25L+L30M+Y31G+E32W+S33M+W56N | 0.06 / -0.21 / -0.19 / -0.18 / 0.02 / -0.02 | -0.09 | 1 of 18 (2.46) |
| S25F+S26E+V29M+L30G+K36Q+W56E+T59H+S103W | 0.05 / 0.13 / 0.05 / -0.39 / 0.08 / 0.18 | 0.02 | 0 of 18 |
| Q27G+L30M+Y31G+S33D+R34W+W56H+T59Q+S103M | 0.47 / 0.37 / 0.50 / 0.60 / 0.75 / 0.98 | 0.61 | 1 of 18 (2.86) |
| S25L+S26M+V29D+K36V+S38N+W56Q+T59Q+S62L+Q96D | 0.03 / -0.33 / -0.33 / -0.13 / -0.43 / -0.17 | -0.23 | 0 of 18 |
| S25L+S26M+V29P+L30E+N35W+W56N+T59Q+S62E | 0.55 / 0.18 / 0.27 / 0.04 / 0.09 / 0.32 | 0.24 | 2 of 18 (3.40) |
| S25F+S26D+S28E+V29W+W56M+T59Q+E61C | -0.13 / 0.00 / -0.15 / -0.31 / -0.04 / -0.20 | -0.14 | 0 of 18 |
| S25L+V29Q+L30G+Y31G+E32W+S33Q+W56E+S62M | 0.32 / 0.19 / 0.17 / 0.16 / 0.19 / 0.45 | 0.25 | 0 of 18 |
| S25Y+S26Q+V29E+L30P+W56N+S62T+R99Q | 0.68 / 0.45 / 0.40 / 0.37 / 0.47 / 0.39 | 0.46 | 1 of 18 (4.29) |
| S25W+Q27F+S28L+Y31G+W56D | 0.10 / -0.13 / -0.03 / -0.25 / -0.05 / 0.07 | -0.05 | 0 of 18 |
| S25L+Q27C+V29E+E32D+S33E+R34P+K36S+W56N+S62M | -0.11 / -0.08 / -0.38 / -0.21 / 0.05 / 0.20 | -0.09 | 2 of 18 (2.53) |
| S25L+S26H+S28E+L30G+W56G+A57G+T59Q | -0.31 / -0.11 / -0.28 / -0.37 / -0.40 / -0.10 | -0.26 | 0 of 18 |
| K24H+S25A+S26Y+V29G+K36Q+W56S+T59M | 0.50 / 0.41 / 0.67 / 0.68 / 0.40 / 0.57 | 0.54 | 2 of 18 (1.99) |
| S25V+Q27I+S28L+V29D+Y31G+E32G+S33D+W56H+T59L | 0.71 / 0.82 / 0.71 / 0.16 / 0.32 / 0.28 | 0.50 | 1 of 18 (1.91) |
| S25M+S26Q+V29E+L30G+Y31M+W56H+T59L+E61L+S62E | 0.42 / 0.25 / 0.18 / -0.13 / 0.13 / 0.31 | 0.19 | 1 of 18 (3.01) |
| S25V+S26D+W56Q+A57G+S103H | 1.17 / 0.96 / 0.76 / 1.20 / 1.23 / 1.41 | 1.12 | 1 of 18 (2.79) |
| S25F+S26Q+L30M+S33D+N35V+W56N+T59D+E61M | 0.44 / 0.42 / 0.41 / 0.21 / 0.65 / 0.30 | 0.41 | 1 of 18 (2.48) |
| S25V+V29M+E32Q+S38N+W56E+S62Q+Q96S | 0.62 / 0.83 / 1.21 / 0.91 / 0.39 / 0.43 | 0.73 | 0 of 18 |
| S25L+S26Q+S28M+V29E+E32M+W56D+T59Q | -0.14 / -0.37 / -0.36 / -0.68 / -0.43 / -0.22 | -0.37 | 3 of 18 (2.20) |
| S25V+Q27M+V29W+K36W+W56N+T59L+Q96D | 0.59 / 0.76 / 0.25 / 0.72 / 0.27 / 0.65 | 0.54 | 0 of 18 |
| S25L+S26Q+Q27C+V29E+L30E+K36F+W56Q+E61N+S62L | 0.50 / 0.28 / 0.11 / 0.39 / 0.35 / 0.56 | 0.37 | 1 of 18 (2.10) |
| K24A+S25I+L30E+N35D+W56N+S62Q | 0.75 / 0.63 / 0.67 / 0.62 / 0.53 / 0.65 | 0.64 | 3 of 18 (2.18) |
| S28G+V29Q+S33N+W56S+T59Q | 0.08 / 0.17 / -0.64 / -0.52 / -0.26 / -0.34 | -0.25 | 0 of 18 |
| S25Q+V29E+L30G+Y31G+K36M+S38N+W56H+T59Q | 0.21 / 0.12 / 0.13 / 0.00 / 0.08 / 0.21 | 0.13 | 1 of 18 (2.61) |

The first 2 entries again:

| changes | replicates, log10 nM | log10 Kd (nM), mean | control signals |
|---|---|---|---|
| S25L+S28Q+V29A+W56Q+S62V | -0.39 / -0.43 / 0.03 / -0.66 / -0.25 / -0.30 | -0.33 | 0 of 18 |
| S25L+L30G+E32Q+W56N+S62D | -0.02 / -0.01 / -0.13 / -0.26 / -0.32 / 0.07 | -0.11 | 3 of 18 (1.97) |